Data taken from patent US20090196871A1, “USE OF 4-PYRIDYLMETHYLPHTHALAZINES FOR CANCER TREATMENT” (priority 2001, published 2009).

Conditions: human, in vivo, po

SMILES: Clc1ccc(Nc2nnc(Cc3ccncc3)c3ccccc23)cc1
- time by which steady-state was achieved: ≤ 15 days
